# Experimental data from ChEMBL document CHEMBL1123609, “Synthesis, conformational considerations, and estrogen receptor binding of diastereoisomers and enantiomers of 1-[4-[2-(dimethylamino)ethoxy]phenyl]-1,2-diphenylbutane (dihydrotamoxifen)” (1987).
# Protein sequences, listed by entry. Tags and fused reporters are not part of them.
# UniProt Q92731, whole entry, looked up: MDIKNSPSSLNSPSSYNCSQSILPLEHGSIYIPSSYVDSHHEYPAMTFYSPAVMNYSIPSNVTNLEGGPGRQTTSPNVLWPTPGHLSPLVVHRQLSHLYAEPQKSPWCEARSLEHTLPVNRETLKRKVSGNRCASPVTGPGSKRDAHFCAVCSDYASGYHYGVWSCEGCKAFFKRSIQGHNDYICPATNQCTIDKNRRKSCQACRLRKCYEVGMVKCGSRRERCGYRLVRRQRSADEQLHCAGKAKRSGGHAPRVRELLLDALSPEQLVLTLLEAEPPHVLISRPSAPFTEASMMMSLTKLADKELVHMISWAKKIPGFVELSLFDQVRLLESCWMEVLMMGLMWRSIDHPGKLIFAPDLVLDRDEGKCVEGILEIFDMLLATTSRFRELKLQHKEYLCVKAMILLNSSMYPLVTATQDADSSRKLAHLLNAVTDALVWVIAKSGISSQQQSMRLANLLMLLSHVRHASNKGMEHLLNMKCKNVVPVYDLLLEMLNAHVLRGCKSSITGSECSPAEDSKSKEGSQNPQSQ
# UniProt P03372, whole entry, looked up: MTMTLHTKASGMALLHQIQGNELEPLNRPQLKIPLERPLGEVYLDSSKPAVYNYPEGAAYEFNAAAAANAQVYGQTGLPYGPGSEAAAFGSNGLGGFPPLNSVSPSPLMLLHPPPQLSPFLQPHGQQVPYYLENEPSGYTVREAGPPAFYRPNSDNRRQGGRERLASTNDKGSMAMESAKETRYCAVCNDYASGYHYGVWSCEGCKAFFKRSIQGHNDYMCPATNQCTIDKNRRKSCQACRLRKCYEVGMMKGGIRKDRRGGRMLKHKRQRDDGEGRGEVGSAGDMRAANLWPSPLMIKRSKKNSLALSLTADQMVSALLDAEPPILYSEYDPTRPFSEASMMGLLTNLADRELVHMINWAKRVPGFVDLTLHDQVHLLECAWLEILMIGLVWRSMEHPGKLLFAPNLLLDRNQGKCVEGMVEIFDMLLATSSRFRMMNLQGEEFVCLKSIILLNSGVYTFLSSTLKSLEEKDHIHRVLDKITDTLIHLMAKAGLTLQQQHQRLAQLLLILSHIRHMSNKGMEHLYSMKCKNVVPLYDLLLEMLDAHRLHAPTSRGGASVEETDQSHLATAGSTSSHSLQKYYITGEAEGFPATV
# Biological target: Estrogen receptor (Homo sapiens) (UniProt Q92731+P03372)
# Assay: Relative binding affinity for estrogen receptor of MCF-7 cells
# Assay type: cell-based
# Details: MCF7
# Outline: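 Whole MCF-7 cells incubated 50 min at 37 °C with 10^-9 M [3H]estradiol, without or with test compound or unlabeled estradiol reference (10^-10 to 10^-6 M). Bound material extracted with EtOH and receptor-bound [3H]estradiol measured. RBA calculated as in the calf uterine cytosol competition assay.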
row,Relative binding affinity,Structure (SMILES)
1,0.6,CC/C(=C(\c1ccccc1)c1ccc(O)cc1)c1ccccc1
2,0.02,CC/C(=C(/c1ccccc1)c1ccc(O)cc1)c1ccccc1
